What is called IC50 is the midpoint of a concentration-inhibition curve.

Chains of the proteins cited; added tags and fusions are not shown.
UniProt Q99685, whole entry: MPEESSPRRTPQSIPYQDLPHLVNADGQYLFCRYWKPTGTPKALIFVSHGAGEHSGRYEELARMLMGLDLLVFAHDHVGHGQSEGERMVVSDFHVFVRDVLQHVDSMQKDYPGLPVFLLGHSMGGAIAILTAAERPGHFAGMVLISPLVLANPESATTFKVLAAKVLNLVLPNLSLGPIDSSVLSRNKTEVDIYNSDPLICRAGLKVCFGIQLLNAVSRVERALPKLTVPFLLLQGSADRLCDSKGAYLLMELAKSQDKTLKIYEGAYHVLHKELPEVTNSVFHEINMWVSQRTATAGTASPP

The target of the experiment is purified wild type MGL (wt-MGLL 6H-11-313) (Homo sapiens, UniProt Q99685).

SMILES strings stand for the structures.

Compound `O=C(c1nccs1)N1CCN(C2CN(C(=O)c3cccc4c3CN(c3ncccn3)CC4)C2)CC1` displayed an IC50 of 2790 nM.
